From patent US9577283B2, “Energy storage battery” (NISSIN ELECTRIC CO., LTD., priority 2012, dated 2017)
Read-outs that look alike come from different tables or passages of the source.

[1] = target concentration 0.2 mol/L, metal:ligand 1:1, pH 7, with Na2SO4

Substance | deposition of manganese compound on preparing aqueous solution (0.2 mol/L, molar ratio of manganese to ethylenediamine 1:5, pH 7, with Na2SO4) | deposition of manganese compound on preparing aqueous solution [1]
Mn(II)-ethylenediamine complex | no manganese compound was deposited | a manganese compound is deposited immediately
Mn(II)-succinic acid complex |  | a manganese compound was immediately deposited
